Data reported in ChEMBL document CHEMBL1124394, “Synthesis and biological evaluation of 14-alkoxymorphinans. 2. (-)-N-(cyclopropylmethyl)-4,14-dimethoxymorphinan-6-one, a selective mu opioid receptor antagonist” (J Med Chem, 1989).

Sequences of proteins named here, by UniProt entry; tags and fusion partners are left off. A change or cut given only in a name is not applied to a line headed by its entry.
UniProt P33533, whole entry, looked up: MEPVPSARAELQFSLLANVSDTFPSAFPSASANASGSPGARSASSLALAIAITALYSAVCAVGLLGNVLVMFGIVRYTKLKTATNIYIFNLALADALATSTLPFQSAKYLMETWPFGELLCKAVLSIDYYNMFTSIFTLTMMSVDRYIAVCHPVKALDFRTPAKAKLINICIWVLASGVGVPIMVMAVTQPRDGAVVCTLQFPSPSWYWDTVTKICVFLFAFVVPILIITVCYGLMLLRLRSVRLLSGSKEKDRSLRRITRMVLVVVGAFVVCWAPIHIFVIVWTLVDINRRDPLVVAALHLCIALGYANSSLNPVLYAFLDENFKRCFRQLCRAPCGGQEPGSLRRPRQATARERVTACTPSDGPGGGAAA
UniProt P34975: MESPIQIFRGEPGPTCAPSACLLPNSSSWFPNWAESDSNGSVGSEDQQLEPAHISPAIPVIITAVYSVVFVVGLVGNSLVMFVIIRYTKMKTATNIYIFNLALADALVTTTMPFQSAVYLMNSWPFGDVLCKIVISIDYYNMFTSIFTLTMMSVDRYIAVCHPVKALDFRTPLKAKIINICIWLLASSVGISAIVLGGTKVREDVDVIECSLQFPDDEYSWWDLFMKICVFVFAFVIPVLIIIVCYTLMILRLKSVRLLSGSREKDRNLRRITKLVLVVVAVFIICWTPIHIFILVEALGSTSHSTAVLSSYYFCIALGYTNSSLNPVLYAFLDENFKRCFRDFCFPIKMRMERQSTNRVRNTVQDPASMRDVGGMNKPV
UniProt P33535, whole entry, looked up: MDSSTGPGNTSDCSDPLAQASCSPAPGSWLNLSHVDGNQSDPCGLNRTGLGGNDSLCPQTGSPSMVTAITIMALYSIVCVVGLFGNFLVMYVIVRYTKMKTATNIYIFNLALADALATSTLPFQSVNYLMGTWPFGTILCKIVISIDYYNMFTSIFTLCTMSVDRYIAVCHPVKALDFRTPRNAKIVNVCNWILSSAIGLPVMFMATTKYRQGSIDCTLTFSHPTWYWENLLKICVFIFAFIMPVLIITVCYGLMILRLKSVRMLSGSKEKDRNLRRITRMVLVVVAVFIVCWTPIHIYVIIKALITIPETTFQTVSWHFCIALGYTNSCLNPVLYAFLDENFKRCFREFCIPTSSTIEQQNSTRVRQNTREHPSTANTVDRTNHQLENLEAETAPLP

What was measured:
[1] = target: Opioid receptor (Rattus norvegicus, UniProt P33533+P34975+P33535)
[2] = test system: Oryctolagus cuniculus; experiment: Percent change of rate in the respiratory activity was measured in rabbit at 0.1 mg/kg dose given intravenously; details: route intravenous

Structure (SMILES): CN(C(=O)Cc1ccc(Cl)c(Cl)c1)C1CCCCC1N1CCCC1 (configuration not stated)
- IC50 [1]: 2.15 µM
- Rate change [2]: 29%
